Target: Cannabinoid receptor 1 (Mus musculus, UniProt P47746)
Experiment: Displacement of [3H]CP55940 from mouse brain CB1R expressed in CHOK1 cell membranes
Outline: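 Displacement binding isotherms with [3H]-CP55940 as labeled ligand on plasma membranes from CHO-K1 cells expressing CB1R or CB2R. Ki was calculated by the Cheng-Prusoff equation. Values are mean ± SEM of 3 independent experiments, each run in triplicate.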

Sequences of proteins named here, by UniProt entry; tags and fusion partners are left off.
UniProt P47746, whole entry: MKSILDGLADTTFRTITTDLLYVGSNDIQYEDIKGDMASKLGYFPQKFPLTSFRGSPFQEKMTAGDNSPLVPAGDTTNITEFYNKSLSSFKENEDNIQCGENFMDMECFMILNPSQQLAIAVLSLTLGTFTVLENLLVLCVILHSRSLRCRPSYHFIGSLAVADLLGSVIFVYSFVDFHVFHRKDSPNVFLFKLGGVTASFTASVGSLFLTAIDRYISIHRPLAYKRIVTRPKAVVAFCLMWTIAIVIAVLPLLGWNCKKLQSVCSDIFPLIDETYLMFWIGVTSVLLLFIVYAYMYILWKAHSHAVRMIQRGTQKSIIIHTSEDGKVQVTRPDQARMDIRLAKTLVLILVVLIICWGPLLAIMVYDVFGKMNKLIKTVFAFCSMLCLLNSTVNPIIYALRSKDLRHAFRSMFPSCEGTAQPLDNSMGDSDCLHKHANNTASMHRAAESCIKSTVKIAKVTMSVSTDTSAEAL

`C/C(N)=N\C(=N/S(=O)(=O)c1ccc(Cl)cc1)N1C[C@@H](c2ccccc2)C(c2ccc(Cl)cc2)=N1` showed a Ki of 671 nM.
Compound `C/C(N)=N\C(=N/S(=O)(=O)c1ccc(Cl)cc1)N1C[C@H](c2ccccc2)C(c2ccc(Cl)cc2)=N1` has a Ki of 7.9 nM.
